The text below walks through data of PubChem BioAssay AID853 (Columbia University Molecular Screening Center, 2007).

Only a part is listed here, and it is no random draw. The source made the active and inactive calls.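 How the source made its calls: active means inhibition of aggregate fluorescence above about 70%, also judged a hit by eye on the cell image (limit read from the data, passing the limit was not always enough); inconclusive means no rule stated for this call; inactive means not judged a hit on image review.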

The nature of this experiment: clearance of mutant huntingtin inclusions, primary screen, imaging, HeLa Exon1htt(103Q)mCFP, confocal imaging (AID 853).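 Further: cells exposed to compound for three days before fixation.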 The conditions noted are these: aggregate imaging, at 1.5 µM, hits give high values, zero = plate's median compound well.
For `Cc1cc(C)cc(OP(C)(=O)Nc2ccc(C)cc2C)c1` (centres undefined), the inhibition was inactive: 42.1%.

As for `Cc1ccc(C)c(NP(C)(=O)Oc2ccccc2)c1` (centres undefined), the inhibition is inactive: -40.3%.

`CCOP1(=S)c2c(C)nn(CCC#N)c2N=C(c2ccccc2F)N1C` (centres undefined): the inhibition was inactive: 12.9%.

For `Cc1nn(-c2ccccc2)c2c1P(=O)(N1CCOCC1)N(C)C(c1ccccc1)=N2` (centres undefined), the inhibition is inactive: -24.7%.

For the compound `O=P1(Nc2ncccn2)COc2ccccc2OC1`, the inhibition was inactive: 26.6%.

Take `O=P1(Nc2ccc(Br)cn2)COc2ccccc2OC1`: the inhibition is inactive: -24.4%.

Regarding `O=P1(Nc2ccccn2)COc2ccccc2OC1`, the inhibition was inactive: -44.5%.

As to `Clc1n[nH]nc1-c1nn[nH][15n]1`, the inhibition is inactive: -9.3%.

With `CC1(CBr)Cn2c(nc3ccccc3c2=O)S1` (centres undefined), the inhibition is inactive: 53.1%.

As for `COP1(=S)c2c(C)nn(CCC#N)c2N=C(c2ccc(F)cc2)N1C` (centres undefined), the inhibition is inactive: 61.4%.

On to `CCC(C)N(CC(C)C)C(=S)SC(NC(C)=O)C(Cl)(Cl)Cl` (centres undefined), for which the inhibition is inactive: -55.5%.

In the case of `CP(=S)(Nn1cnnc1)Oc1ccccc1` (centres undefined), the inhibition was inactive: -101%.

Turning to `CN1CCCC(OC(=O)C(c2ccccc2)c2ccccc2)C1` (centres undefined), the inhibition was inactive: -111%.

In the case of `Cc1c2non([O-])c-2c(C)[n+](=O)[n+]1[O-]`, the inhibition was inactive: 3.1%.

Take `CCc1ccc(OP(C)(=O)O)cc1`: the inhibition is inactive: 28.8%.

As to `Cc1nc2ccc3ccccc3c2o1.O=[N+]([O-])c1cc([N+](=O)[O-])c(O)c([N+](=O)[O-])c1`, the inhibition is inactive: -23.5%.

Take `CP(=O)(OC12CC3CC(CC(C3)C1)C2)OC12CC3CC(CC(C3)C1)C2`: the inhibition is inactive: 15%.

Turning to `CCN(CC)CC(O)COC(=O)C(O)(c1ccccc1)C1CCCCC1` (centres undefined), the inhibition is inactive: -28.1%.

With `CCc1nc2c(n1)c1c(non1O)c1c2no[n+]1[O-]`, the inhibition was inactive: -10.5%.

For `CP(=O)(Oc1ccccc1)N1CCOC1=O` (centres undefined), the inhibition is active: 73.9%.

Take `CC1CCN(C(=O)Oc2c(Cl)cc(Cl)c3cccnc23)CC1`: the inhibition is inactive: -8.5%.

Turning to `O=P(Nc1nccs1)(c1ccccc1)c1ccccc1`, the inhibition is inactive: 66.7%.

Take `CCOP(C)(=S)SCC(=O)NC(C)(CC)C(=O)O` (centres undefined): the inhibition was inactive: -41.6%.

Consider `CP(=O)(Nc1ccc2c(c1)OCCO2)Oc1ccccc1` (centres undefined), for which the inhibition was inactive: 12%.

As to `CN(C)CCOC(=O)C(O)(c1ccccc1)C1CCCCC1` (centres undefined), the inhibition is inactive: -1.2%.

As to `O=C(OC1CN2CCC1CC2)c1cccc(Cl)c1` (centres undefined), the inhibition was inactive: -99.6%.

Turning to `CP(=O)(Nc1ccccc1)Oc1ccc(F)cc1` (centres undefined), the inhibition is inactive: -2.7%.

For `O=P1(Nc2nc3ccc(Cl)cc3s2)COc2ccccc2O1` (centres undefined), the inhibition was inactive: 0.8%.

In the case of `CP(=O)(Nc1ccccc1F)Oc1ccccc1` (centres undefined), the inhibition is inactive: -1.1%.

A word on the inhibition: it is the relative decrease from the control value, in per cent.
